The entries are a selection whose mix differs from that of the whole data set. The source made the active and inactive calls. Rule as the data show it: active = activation above about 33% (passing the limit was not always enough); inactive = the rest.

Chains of the proteins cited; added tags and fusions are not shown.
UniProt P25929, whole entry: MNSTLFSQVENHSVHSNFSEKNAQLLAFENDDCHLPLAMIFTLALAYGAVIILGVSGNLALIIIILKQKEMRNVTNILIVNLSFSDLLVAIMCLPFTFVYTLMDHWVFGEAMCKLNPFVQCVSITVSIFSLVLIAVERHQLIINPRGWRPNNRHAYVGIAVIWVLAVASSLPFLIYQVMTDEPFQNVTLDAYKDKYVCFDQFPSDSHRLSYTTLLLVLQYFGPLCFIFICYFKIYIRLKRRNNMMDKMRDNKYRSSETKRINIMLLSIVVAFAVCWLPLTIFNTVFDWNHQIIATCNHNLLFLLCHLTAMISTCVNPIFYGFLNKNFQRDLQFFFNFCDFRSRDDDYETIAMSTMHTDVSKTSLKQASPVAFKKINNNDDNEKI

This experiment deals with Neuropeptide Y receptor type 1 (Homo sapiens) (UniProt P25929). Nature of the experiment: activation enhancers of human NPY-Y1 – cell-based, primary screen (AID 1304).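 Also: cells stimulated with NPY at EC10 then isoproterenol at EC100; 0% = low agonist plus stimulus and 100% = saturating agonist plus stimulus.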 The settings on record: NPY-Y1 expressing cells, potentiator/agonist activation; at 3.6 µM; active compounds read high.
Regarding `Cc1ccc(NP(C)(=O)Oc2ccccc2)c(C)c1` (stereo not drawn), the activation is inactive: 22.9%.

Turning to `COc1ccccc1OP(C)(=O)Nc1ccc(C)cc1` (stereo not drawn), the activation is inactive: 3.62%.

With `CCOC(=O)c1ccc(NP(C)(=O)Oc2ccccc2)cc1` (stereo not drawn), the activation is inactive: 12.6%.

Turning to `Cc1cc(C)cc(OP(C)(N)=O)c1` (stereo not drawn), the activation was inactive: 8.47%.

As for `COc1ccc(OP(C)(=O)Nc2cccc(F)c2)cc1` (stereo not drawn), the activation is inactive: 29.6%.

With `COc1ccccc1OP(C)(=O)Nc1cc(Cl)ccc1C` (stereo not drawn), the activation was inactive: -10.9%.

Turning to `O=[N+]([O-])c1ccc2c(c1)C=Nc1ccccc1O2`, the activation is inactive: 16.8%.

As for `Cc1cccc(C)c1OP(C)(N)=O` (stereo not drawn), the activation is inactive: -13.6%.

Turning to `CC(C)(C)c1ccc(OP(C)(=O)Nc2ccc(SC(F)(F)F)cc2)cc1` (stereo not drawn), the activation was inactive: -2.93%.

On to `CCN(CC)CCCOC(=O)C(O)(c1ccccc1)c1ccccc1`, for which the activation is inactive: -6.21%.

Regarding `CCOC(=O)c1ccc(NP(C)(=O)Oc2ccc(OC)cc2)cc1` (stereo not drawn), the activation was inactive: -10.2%.

On to `CCOP(C)(=S)SCC(=O)NC(C)C(=O)O` (stereo not drawn), for which the activation is inactive: -8.22%.

In the case of `CP(=O)(Nc1ccccn1)Oc1ccc(Cl)cc1` (stereo not drawn), the activation was inactive: -20.1%.

On to `CP(=O)(Oc1ccccc1)OC(c1ccccc1)C(F)(F)F` (stereo not drawn), for which the activation is inactive: 8.59%.

For `Cc1cccc(C)c1OP(C)(=O)Nc1ccc(SC(F)(F)F)cc1` (stereo not drawn), the activation was inactive: 16.3%.

Turning to `CP(=O)(Nc1ccc(SC(F)(F)F)cc1)Oc1ccc(Cl)cc1` (stereo not drawn), the activation was inactive: 5.74%.

As for `Cc1cc(C)cc(OP(C)(=O)Nc2ccc(SC(F)(F)F)cc2)c1` (stereo not drawn), the activation is inactive: -18%.

For the molecule `CP(=O)(NC(=O)Nc1ccccc1)Oc1ccccc1` (stereo not drawn), the activation was inactive: -18.9%.

For the molecule `CCc1ccc(OP(C)(=O)N2CCN(c3ccc([N+](=O)[O-])cc3)CC2)cc1` (stereo not drawn), the activation is inactive: -9.98%.

With `CP(=S)(Nn1cnnc1)Oc1ccccc1` (stereo not drawn), the activation was inactive: -27.2%.

As for `CP(=O)(Nc1ccccc1Br)Oc1ccccc1` (stereo not drawn), the activation is inactive: 1.9%.

Take `COc1ccccc1OP(C)(=O)Nc1ccccc1` (stereo not drawn): the activation is inactive: -1.71%.

Consider `COc1ccccc1OP(C)(=O)Nc1c(C)cccc1C` (stereo not drawn), for which the activation is inactive: 9.83%.

`CN1CCCCC1COC(=O)C1(O)c2ccccc2CCc2ccccc21` (stereo not drawn): the activation is inactive: -40.5%.

As to `CCCOc1ccc(NP(C)(=O)Oc2ccc(Cl)cc2)cc1` (stereo not drawn), the activation is inactive: -16.5%.

Regarding `CP(=O)(Nc1ccc(SC(F)(F)F)cc1)Oc1ccccc1` (stereo not drawn), the activation was inactive: 13.2%.

As for `CCOC(=O)C(CC)C1=NC(C)(C)Cc2ccccc21.O=[N+]([O-])c1cc([N+](=O)[O-])c(O)c([N+](=O)[O-])c1` (stereo not drawn), the activation was inactive: -24.6%.

In the case of `O=[N+]([O-])c1cc([N+](=O)[O-])c(Nc2nnnn2CCO)c([N+](=O)[O-])c1`, the activation is inactive: 2.82%.

For the molecule `Cc1nc2ccc3ccccc3c2s1.O=[N+]([O-])c1cc([N+](=O)[O-])c(O)c([N+](=O)[O-])c1`, the activation was inactive: -17.2%.

With `O=[N+]([O-])c1cc([N+](=O)[O-])c(-n2nnc3ccccc32)c([N+](=O)[O-])c1`, the activation is inactive: 0.01%.

In the case of `Cc1ccc(C)c(NP(C)(=O)Oc2ccccc2)c1` (stereo not drawn), the activation was inactive: 6.58%.

Take `Cc1cc(C)cc(OP(C)(=O)Nc2ccccn2)c1` (stereo not drawn): the activation was inactive: 5.38%.

Take `CP(=O)(Nc1cccc(Br)c1)Oc1ccccc1` (stereo not drawn): the activation was inactive: -8.16%.

Regarding `COc1ccccc1OP(C)(=O)Nc1cccc(Br)c1` (stereo not drawn), the activation was inactive: 6.89%.

For `CCOC(=O)c1ccc(NP(C)(=O)Oc2cc(C)cc(C)c2)cc1` (stereo not drawn), the activation was inactive: -21.4%.

On to `Cc1cc(C)cc(OP(C)(=O)Nc2ccc(C)cc2C)c1` (stereo not drawn), for which the activation is inactive: 5.83%.

As to `CC1=NCCc2c1[nH]c1ccccc21.O=[N+]([O-])c1cc([N+](=O)[O-])c(O)c([N+](=O)[O-])c1`, the activation is inactive: -31.7%.

Consider `O=C(O)c1cccc(Nc2c([N+](=O)[O-])cc([N+](=O)[O-])cc2[N+](=O)[O-])c1`, for which the activation was inactive: 7.54%.

Take `CCN(CC)CCCOC(=O)C(O)(c1ccccc1)C1CCCCC1` (stereo not drawn): the activation was inactive: -39%.

Regarding `CP(=O)(Nc1ccccc1)Oc1ccc(F)cc1` (stereo not drawn), the activation was inactive: 20.5%.

Take `CCCCCOc1ccc(NP(C)(=O)Oc2ccc(Cl)cc2Cl)cc1` (stereo not drawn): the activation is inactive: -23%.

Consider `CCOC(=O)c1ccc(NP(C)(=O)Oc2ccc(F)cc2)cc1` (stereo not drawn), for which the activation is inactive: 1.1%.

Turning to `COc1ccc(OP(C)(=O)Nc2ccc(SC(F)(F)F)cc2)cc1` (stereo not drawn), the activation was inactive: 12.4%.

With `O=C(OC1CN2CCC1CC2)c1ccc([N+](=O)[O-])cc1` (stereo not drawn), the activation is inactive: 2.37%.

Take `O=C(OCCN1CCN(CCOCc2ccccc2)CC1)C(O)(c1ccccc1)c1ccccc1`: the activation is inactive: 5.7%.

As to `CP(=O)(Nc1ccccc1F)Oc1ccccc1` (stereo not drawn), the activation was inactive: 9.33%.

Turning to `CC(C)c1ccc(OP(C)(=O)Nc2ccc(SC(F)(F)F)cc2)cc1` (stereo not drawn), the activation is inactive: 2.42%.

For the molecule `CP(=O)(Nc1ccc2c(c1)OCCO2)Oc1ccccc1` (stereo not drawn), the activation was inactive: 12.1%.

Consider `Cc1ccccc1NP(C)(=O)Nc1ccccc1C`, for which the activation is inactive: 0.53%.

For the molecule `CP(=O)(Nc1ccc(SC(F)(F)F)cc1)Oc1ccc(F)cc1` (stereo not drawn), the activation was inactive: 36.2%.

Turning to `CCOP(C)(=S)SCC(=O)NC(C)(CC)C(=O)O` (stereo not drawn), the activation was inactive: 3.74%.

As to `O=[N+]([O-])c1ccc(OP2(=O)COCCO2)cc1` (stereo not drawn), the activation is inactive: 1.49%.

With `O=[N+]([O-])c1cc([N+](=O)[O-])c(NCC2CCS(=O)(=O)C2)c([N+](=O)[O-])c1` (stereo not drawn), the activation is inactive: 3.49%.

With `Cc1cc(-c2cccc3ccccc23)c(C)cn1.O=[N+]([O-])c1cc([N+](=O)[O-])c(O)c([N+](=O)[O-])c1`, the activation is inactive: -12.8%.

On to `COc1ccc(OP(C)(=O)Nc2cccc(Br)c2)cc1` (stereo not drawn), for which the activation is inactive: 18.4%.

Consider `CN(C)CCOC(=O)C(O)(c1ccccc1)C1CCCCC1` (stereo not drawn), for which the activation was inactive: 2.19%.

For the molecule `COc1ccc(NP(C)(=O)Oc2ccccc2OC)cc1` (stereo not drawn), the activation is inactive: 7.09%.

Take `CCOC(=O)c1ccc(NP(C)(=O)Oc2ccc(Cl)cc2)cc1` (stereo not drawn): the activation is inactive: -3.96%.

Take `CP(=O)(OC12CC3CC(CC(C3)C1)C2)OC12CC3CC(CC(C3)C1)C2`: the activation is inactive: 3.4%.

Regarding `COc1ccccc1OP(C)(=O)Nc1ccccc1Br` (stereo not drawn), the activation was inactive: 17.4%.

On to `CC(C)(C)c1ccc(OP(C)(=O)O)cc1`, for which the activation was inactive: -19.5%.

With `CP(=O)(Nc1ccc(Cl)cc1)Oc1ccc(F)cc1` (stereo not drawn), the activation was inactive: 12.6%.

As for `CN(C)C(=O)c1c([N+](=O)[O-])cc([N+](=O)[O-])cc1[N+](=O)[O-]`, the activation was inactive: 12.5%.

As to `COc1ccc(OP(C)(=O)Nc2ccc(Br)cc2)cc1` (stereo not drawn), the activation was inactive: 2.85%.

Regarding `CCN(CC)CC(O)COC(=O)C(O)(c1ccccc1)C1CCCCC1` (stereo not drawn), the activation was inactive: -18.9%.

As to `O=C(OCCCN1CCCC1)C(O)(c1ccccc1)C1CCCCC1` (stereo not drawn), the activation was inactive: -2.81%.

Consider `COc1ccccc1OP(C)(=O)Nc1c(C)n(C)n(-c2ccccc2)c1=O` (stereo not drawn), for which the activation was inactive: 14.6%.

On to `CCc1ccc(OP(C)(=O)Nc2cccnc2)cc1` (stereo not drawn), for which the activation is inactive: -7.48%.

For `CP(=O)(Oc1ccccc1)N1CCOC1=O` (stereo not drawn), the activation was inactive: 6.15%.

For the molecule `Cc1c(NP(C)(=O)Oc2ccc(C(C)C)cc2)c(=O)n(-c2ccccc2)n1C` (stereo not drawn), the activation is inactive: -10.7%.

Take `O=[N+]([O-])c1cc([N+](=O)[O-])c(Nc2ccccn2)c([N+](=O)[O-])c1`: the activation was inactive: 2.09%.

As for `COc1ccccc1OP(C)(=O)Nc1ccc(C)cc1C` (stereo not drawn), the activation was inactive: -4.39%.

Regarding `CP(=O)(Nc1ccccn1)Oc1ccccc1` (stereo not drawn), the activation was inactive: 10.5%.

Take `CCc1ccc(OP(C)(=O)O)cc1`: the activation is inactive: -9.99%.

On to `COc1ccccc1OP(C)(=O)Nc1ccc(Br)cc1` (stereo not drawn), for which the activation is inactive: 1.66%.

On to `COc1ccc(OP(C)(=O)Nc2ccccn2)cc1` (stereo not drawn), for which the activation was inactive: 4.25%.

For the molecule `CN(C)CCOC(=O)C(O)(c1ccccc1)C1CCCC1` (stereo not drawn), the activation is inactive: -1.62%.

Consider `Cc1nc2ccc3ccccc3c2o1.O=[N+]([O-])c1cc([N+](=O)[O-])c(O)c([N+](=O)[O-])c1`, for which the activation is inactive: -2.99%.

In the case of `CP(=O)(Nc1ccc(Cl)cc1Cl)Oc1ccccc1` (stereo not drawn), the activation is inactive: -2.06%.

With `CP(=O)(OCCOc1ccccc1)OCCOc1ccccc1`, the activation is inactive: -11.9%.

On to `Cc1cc(C)cc(OP(C)(=O)Nc2cccc(C(F)(F)F)c2)c1` (stereo not drawn), for which the activation is inactive: 8.78%.

Regarding `COc1ccccc1OP(C)(=O)Nc1ccc(C)c(C)c1` (stereo not drawn), the activation is inactive: 0.83%.

On to `COc1ccc(OP(C)(=O)Nc2ccccc2Br)cc1` (stereo not drawn), for which the activation is inactive: 3.85%.

The record behind these values is PubChem BioAssay AID1304 (The Scripps Research Institute Molecular Screening Center, 2008).
